AlphaSeq binding of Ab-14 light chain variants to a spike HR2 peptide

Binding partner: SARS-CoV-2 spike HR2 peptide, sequence PDVDLGDISGINAS.

The variants keep the heavy chain, the linker and the frameworks of Ab-14 (scFv order VH, a 15-residue (Gly4Ser)3 linker, VL).
VH: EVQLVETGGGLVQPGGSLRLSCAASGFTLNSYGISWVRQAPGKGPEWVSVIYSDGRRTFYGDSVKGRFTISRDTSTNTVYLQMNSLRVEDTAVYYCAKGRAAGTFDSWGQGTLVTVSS
VL: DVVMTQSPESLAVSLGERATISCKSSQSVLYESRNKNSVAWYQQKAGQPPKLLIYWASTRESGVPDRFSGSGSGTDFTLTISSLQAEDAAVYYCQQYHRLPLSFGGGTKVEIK

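The parent was found by panning a naive human phage display library on the peptide. The variants were designed computationally from a first round of random CDR variants and then made and measured. Several design methods are mixed in this list. Affinity was read by AlphaSeq, a pooled yeast mating assay with surface-displayed partners. Mating (16 h, 30 °C) was followed by selection of diploids and sequencing of their barcodes. Each replicate has its own calibration line, from reference interactions of the BCL2 family. Mating was done six times.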

Sequences are complete VL domains.
The Kd shown is the geometric mean over detected replicates; a lower Kd is a better binder.
Order: sorted from the lowest average up.
The parent sequence was in this pool as ten entries: three were never detected, three once, and four in most replicates, with averages from 2.2 nM to 240 nM.
In the paper, a design with two or fewer of six values counts as a poor binder.
Nonspecific signal, from three strains lacking the peptide, appeared in 4% of pairings of all light chain designs, centred on 430 nM (5% of these signals below 38 nM); values are not corrected for it.
The range of this assay differs from that of the first round, and the authors advise against merging the two.

With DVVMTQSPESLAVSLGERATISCKLSQSMLYESRNKNSVAWYQQKAGQPPKLLIYNASQREKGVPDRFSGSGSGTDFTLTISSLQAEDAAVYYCQQYHRLPLSFGGGTKVEIK the result was 550 pM (6 of 6 replicates).
With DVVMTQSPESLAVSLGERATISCKLEGSNLYESRNGNSVAWYQQKAGQPPKLLIYNASTRSSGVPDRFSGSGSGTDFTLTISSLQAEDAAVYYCQQYHRLPLSFGGGTKVEIK the result was 680 pM (6 of 6 replicates).
With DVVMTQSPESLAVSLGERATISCKLSESVLYESRNKNSVAWYQQKAGQPPKLLIYEASTREVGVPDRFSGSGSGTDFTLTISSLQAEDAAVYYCQQYHRLPLSFGGGTKVEIK the result was 780 pM (6 of 6 replicates).
With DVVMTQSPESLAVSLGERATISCKLQQSVLYESRNKNSVAWYQQKAGQPPKLLIYEASTREEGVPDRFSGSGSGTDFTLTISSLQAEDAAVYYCQQYHRLPLSFGGGTKVEIK the result was 880 pM (6 of 6 replicates).
With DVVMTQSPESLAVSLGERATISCKASQVYLYESRNKNSVAWYQQKAGQPPKLLIYGASTRESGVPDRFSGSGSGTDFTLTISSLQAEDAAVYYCQQYHRLPLSFGGGTKVEIK the result was 970 pM (6 of 6 replicates).
With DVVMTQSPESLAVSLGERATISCKVSQSVPYESRNKNSVAWYQQKAGQPPKLLIYQASTRESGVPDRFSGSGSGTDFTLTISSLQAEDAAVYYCQQYHRLPLSFGGGTKVEIK the result was 1.0 nM (6 of 6 replicates).
With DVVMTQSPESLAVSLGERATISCKLQFLALQLSRNKNSVAWYQQKAGQPPKLLIYSASTRESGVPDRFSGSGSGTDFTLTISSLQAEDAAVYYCQQYHRLPLSFGGGTKVEIK the result was 1.5 nM (6 of 6 replicates).
With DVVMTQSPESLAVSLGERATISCKSSISYLEESRNKNSVAWYQQKAGQPPKLLIYEASTREEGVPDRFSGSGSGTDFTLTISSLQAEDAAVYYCQQYHRLPLSFGGGTKVEIK the result was 1.6 nM (6 of 6 replicates).
With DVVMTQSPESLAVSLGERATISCIFEQGQWNGQQNQNAMAWYQQKAGQPPKLLIYNGHTRMQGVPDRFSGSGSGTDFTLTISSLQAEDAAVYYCQQYFKLPLVFGGGTKVEIK the result was 1.7 nM (6 of 6 replicates).
With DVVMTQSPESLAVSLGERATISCMISDLTMYGLRNVNSVAWYQQKAGQPPKLLIYDLSTRGSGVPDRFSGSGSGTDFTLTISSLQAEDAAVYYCQQYHRLPLSFGGGTKVEIK the result was 1.8 nM (6 of 6 replicates).
With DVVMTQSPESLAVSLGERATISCALSQSMDMTSRNKNSVAWYQQKAGQPPKLLIYDLTTRLNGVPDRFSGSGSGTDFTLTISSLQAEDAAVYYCQQYHRLPLSFGGGTKVEIK the result was 1.9 nM (6 of 6 replicates).
With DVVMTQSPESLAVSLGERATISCKISQSFLYESRWKNSVAWYQQKAGQPPKLLIYGASQRESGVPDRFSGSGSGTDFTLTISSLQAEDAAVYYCQQYHRLPLSFGGGTKVEIK the result was 2.0 nM (6 of 6 replicates).
With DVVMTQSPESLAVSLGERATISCKFSQSVLYESRNKNSVAWYQQKAGQPPKLLIYNASTRETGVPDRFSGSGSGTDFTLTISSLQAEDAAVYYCQQYHRLPLSFGGGTKVEIK the result was 2.0 nM (6 of 6 replicates).
With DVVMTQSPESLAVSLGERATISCKIGQGVHLESIMKNSIAWYQQKAGQPPKLLIYQTSTREEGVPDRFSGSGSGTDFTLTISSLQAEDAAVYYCQQYDRLPLSFGGGTKVEIK the result was 2.4 nM (6 of 6 replicates).
With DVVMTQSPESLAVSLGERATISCKSSTSVLYGERNHNSVAWYQQKAGQPPKLLIYDASTRESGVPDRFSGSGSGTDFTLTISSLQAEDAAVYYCQQYHRLPLSFGGGTKVEIK the result was 2.4 nM (6 of 6 replicates).
With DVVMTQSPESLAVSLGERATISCKLSQSWLYESRNKNSVAWYQQKAGQPPKLLIYGASTRESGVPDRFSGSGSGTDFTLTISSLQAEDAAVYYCQAYHRLPLSFGGGTKVEIK the result was 3.7 nM (6 of 6 replicates).
With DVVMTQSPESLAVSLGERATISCKFSQSVPYESRNKNSVAWYQQKAGQPPKLLIYNASQRESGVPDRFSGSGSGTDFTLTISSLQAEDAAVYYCQQYHRLPLSFGGGTKVEIK the result was 3.8 nM (6 of 6 replicates).
With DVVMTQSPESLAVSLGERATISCNFSQMVLYGQTLKNSVAWYQQKAGQPPKLLIYHASTREEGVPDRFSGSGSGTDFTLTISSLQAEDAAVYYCQQYHRLPLIFGGGTKVEIK the result was 5.1 nM (6 of 6 replicates).
With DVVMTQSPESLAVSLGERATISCILSDSVLTLSRNRNSVAWYQQKAGQPPKLLIYDNSTRESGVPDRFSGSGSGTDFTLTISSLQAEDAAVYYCQQYDRLPLSFGGGTKVEIK the result was 6.5 nM (6 of 6 replicates).
With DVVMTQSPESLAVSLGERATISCMVSQLMLWGLHAKNSIAWYQQKAGQPPKLLIYEAKMRLNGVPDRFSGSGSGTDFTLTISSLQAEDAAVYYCQQYDRLPLIFGGGTKVEIK the result was 22 nM (1 of 6 replicates).
With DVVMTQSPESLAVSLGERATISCKQSQSVLYESRNKNSVAWYQQKAGQPPKLLIYGASTRESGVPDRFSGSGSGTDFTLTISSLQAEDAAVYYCQQYHRLPLDFGGGTKVEIK the result was 45 nM (6 of 6 replicates).
With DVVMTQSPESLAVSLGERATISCKISYMGAHFSTNHSAIAWYQQKAGQPPKLLIYQASTREQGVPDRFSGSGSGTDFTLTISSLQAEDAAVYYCQQYHRLPISFGGGTKVEIK the result was 73 nM (6 of 6 replicates).
With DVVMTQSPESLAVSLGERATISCKLSILHQVESINKSNVAWYQQKAGQPPKLLIYEMVTRESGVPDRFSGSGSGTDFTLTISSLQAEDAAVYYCQQYDRLPLSFGGGTKVEIK the result was 150 nM (4 of 6 replicates).
With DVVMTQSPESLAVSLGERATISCMDSQSVLHESMNKNSVAWYQQKAGQPPKLLIYWASTRESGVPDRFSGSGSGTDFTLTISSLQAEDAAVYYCQQYHRLPLSFGGGTKVEIK the result was 270 nM (1 of 6 replicates).
With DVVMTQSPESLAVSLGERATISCKSSQSVLYESRNKNSVAWYQQKAGQPPKLLIYWASTRESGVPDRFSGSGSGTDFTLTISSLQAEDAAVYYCQQYHVLPLSFGGGTKVEIK the result was 590 nM (2 of 6 replicates).

4 of these entries, quoted again:

| VL | Kd | seen in |
|---|---|---|
| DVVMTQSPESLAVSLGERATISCKLQQSVLYESRNKNSVAWYQQKAGQPPKLLIYEASTREEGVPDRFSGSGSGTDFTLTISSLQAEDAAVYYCQQYHRLPLSFGGGTKVEIK | 880 pM | 6/6 |
| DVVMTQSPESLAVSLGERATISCKLEGSNLYESRNGNSVAWYQQKAGQPPKLLIYNASTRSSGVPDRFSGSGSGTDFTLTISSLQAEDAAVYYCQQYHRLPLSFGGGTKVEIK | 680 pM | 6/6 |
| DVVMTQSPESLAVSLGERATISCMDSQSVLHESMNKNSVAWYQQKAGQPPKLLIYWASTRESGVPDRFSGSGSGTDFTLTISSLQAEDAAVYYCQQYHRLPLSFGGGTKVEIK | 270 nM | 1/6 |
| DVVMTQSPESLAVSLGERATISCKISYMGAHFSTNHSAIAWYQQKAGQPPKLLIYQASTREQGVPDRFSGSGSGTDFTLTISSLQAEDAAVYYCQQYHRLPISFGGGTKVEIK | 73 nM | 6/6 |

Source: Li et al. 2023 (doi:10.1038/s41467-023-39022-2), MIT Lincoln Laboratory and A-Alpha Bio; data file from the FLAb repository.